# Nrf2 block: blocks Nrf2 signaling; A549 ARE-Fluc reporter, luciferase luminescence, 18-24 h; Potency, µM (series often up to 46 µM), for inactives: at the highest dose activity change, negative = inhibition, hits mostly inhibitors; hit rate 2.1% among 360,000; also: potency is read from the fitted curve at half-maximal effect; % is scaled to controls: 0 for no effect and ±100 for the full control effect; nearly all actives have a fitted effect of over 60% in size
#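 In this cell-based qHTS, ARE-driven firefly luciferase in A549 cells reports Nrf2 activity; the luminescent signal after BugLite lysis is the measured value, with a prior CellTiter-Fluor read for cell health.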
# GRP78 ERSR act: inducers of ER stress response in human glioma cells; AID 602332; hit rate 0.02% among 420,000; Potency, µM, inactives show at the top dose activation, actives largely listed as activators; U87-MG GRP78 promoter luciferase reporter, 16 h; also: potency is read from the fitted curve at half-maximal effect; series mostly up to about 76 µM; % of control where 0% means no effect; nearly all actives have a fitted effect of over 35% in size
#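 ERSR induction read as luciferase luminescence (Bright-Glo, 10 min at room temperature) in stably transfected human U87-MG glioma cells exposed to compounds for 16 h, using GRP78 as sensor.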
# Nrf2 activator: activates Nrf2 signaling. hit rate 0.31% among 410,000. AID 624171. AREc32 ARE-luciferase reporter (MCF7-derived line), luminescence, 24 h. Potency, µM (doses to about 46.1 µM), for inactives: top-dose activation, usual class: activators; also: potency is read from the fitted curve at half-maximal effect; % of control where 0% means no effect; nearly all actives have a fitted effect of over 65% in size
#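 ARE-driven firefly luciferase activity in AREc32 cells measured after a 24 hr compound exposure at 37 deg C, using Steady-Glo reagent and a 30 min room-temperature hold.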
# Mito fusion act: mitochondrial division inhibition or fusion activation | S. cerevisiae fusion-defective mutant growth rescue, CellTiterGlo 48 h | Potency, µM (doses to about 46.1 µM), for inactives: at the highest dose growth rescue (activation), actives largely listed as activators | hit rate 0.23% among 320,000 | AID 485298; also: potency is read from the fitted curve at half-maximal effect; % of control where 0% means no effect; nearly all actives have a fitted effect of over 45% in size
#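 Yeast fusion mutant, YPEG (non-fermentable carbon), compound, 48 h at 37C non-permissive; CellTiterGlo added, 10 min RT, luminescence read. Rescued growth = division inhibition.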
# miR-21 reporter: miR-21 reporter, rising signal; HeLa miR-21 FLuc reporter, luciferase, 48 h; Potency, µM (doses to about 38.3 µM), for inactives: at the highest dose reporter change, positive = more light; 340,000 tested, under 10 active; AID 2288; active = well fitted rising curve with a large enough effect; inconclusive = small, poorly fitted or top-dose-only effect; inactive = no such curve, though single readings can be large or run the other way;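 further: % of control where 0% means no effect; miR-21 action dims this reporter so a rising signal means less miR-21 action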
#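 HeLa cells endogenously expressing miR-21, stably carrying CMV-driven firefly luciferase with a downstream miR-21 binding site, 2000 cells/well. Titrations up to approximately 40 uM, 48 hours; luciferase luminescence read.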
# A549 viability: counter-screen for Nrf2 inhibitors: cytotoxicity in A549 cells | AID 504648 | hit rate 0.16% among 390,000 | Potency, µM (titrated, usually from 46 µM), inactives show top-dose activity change, negative = cytotoxicity, actives largely listed as inhibitors | A549 ARE-Fluc cells, CellTiter-Fluor viability, 18-24 h; also: potency is read from the fitted curve at half-maximal effect; % is scaled to controls: 0 for no effect and ±100 for the full control effect
#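 A549 ARE_Fluc cells in 5% FBS OPTI-MEM were exposed to compounds in concentration-response for 18-24 h at 37 deg C. Viability was read by CellTiter-Fluor fluorescence (Ex 405/Em 525) after 30 min, before the luciferase read.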
# Starred values were filed as active, the others as inactive; ? = inconclusive; / = not tested or not shown; [ ] = another dose, or the depositor's remark. This is a sample that favours compounds with a hit; in the whole collection about 2.3% have one here. Unless noted, calls follow the shape of the dose curve; as a rule, active = well fitted curve in the direction sought with a large enough effect; inconclusive = small, poorly fitted or top-dose-only effect, or another doubt; inactive = no such curve, though single readings can be large; an effect the other way counts as inactive or inconclusive.
SMILES,Nrf2 block,GRP78 ERSR act,Nrf2 activator,Mito fusion act,miR-21 reporter,A549 viability
O=C(CCC(=O)Nc1ccc(Cl)cc1Cl)N/N=C/c1ccc([N+](=O)[O-])o1,18µM*,5%,21%,-5%,?,-22%
CCCCCC(=O)N/N=C/c1ccc([N+](=O)[O-])o1,/,-1%,2%,-6%,27%,-19%
CC(C)CN(CC(C)C)S(=O)(=O)N1CCC(C(=O)NCc2ccccn2)CC1,13%,-1%,0%,0%,1%,-3%
COc1ccc(C2=CC(c3ccc(OC)c(OC)c3)n3nnnc3N2)c(OC)c1 (stereo not drawn),-9%,-5%,5%,-4%,-12%,?
COc1cccc(C2C=C(c3ccc(OC)cc3OC)Nc3nnnn32)c1 (stereo not drawn),18µM*,-5%,3%,0%,26%,?
N#CC12CCCCC1CC1CCCCC1(C#N)N2Cc1cccnc1 (stereo not drawn),/,-2%,0%,3%,-2%,4%
CC1=CC(C)(C)Nc2ccc(OC(=O)C(C)N3C(=O)c4ccccc4C3=O)cc21 (stereo not drawn),26µM*,-16%,-1%,22%,?,1%
COc1ccc(OC(=O)C(C)N2C(=O)c3ccccc3C2=O)cc1 (stereo not drawn),4%,-3%,0%,-1%,-6%,1%
Cn1c(=O)c2c(nc(N3CCCC3)n2C)n(C)c1=O,-17%,-2%,-1%,5%,4%,1%
O=C(c1ccc2c(c1)N(Cc1ccc(F)cc1)C(=O)c1ccccc1S2=O)N1CCC(Cc2ccccc2)CC1 (stereo not drawn),23µM*,-3%,1%,/,?,-24%
O=C(c1ccc2c(c1)N(Cc1ccccc1)C(=O)c1ccccc1S2=O)N1CCC(Cc2ccccc2)CC1 (stereo not drawn),?,-5%,1%,/,?,-22%
O=C1N/C(=C\c2ccccc2)c2ccccc21,?,2%,8.9µM*,4%,-19%,13%[1.84 µM]

# Sorted by number of heavy atoms (rising): part of the list above
SMILES,Nrf2 block,GRP78 ERSR act,Nrf2 activator,Mito fusion act,miR-21 reporter,A549 viability
O=C1N/C(=C\c2ccccc2)c2ccccc21,?,2%,8.9µM*,4%,-19%,13%[1.84 µM]
Cn1c(=O)c2c(nc(N3CCCC3)n2C)n(C)c1=O,-17%,-2%,-1%,5%,4%,1%
N#CC12CCCCC1CC1CCCCC1(C#N)N2Cc1cccnc1 (stereo not drawn),/,-2%,0%,3%,-2%,4%
COc1cccc(C2C=C(c3ccc(OC)cc3OC)Nc3nnnn32)c1 (stereo not drawn),18µM*,-5%,3%,0%,26%,?
CC1=CC(C)(C)Nc2ccc(OC(=O)C(C)N3C(=O)c4ccccc4C3=O)cc21 (stereo not drawn),26µM*,-16%,-1%,22%,?,1%
O=C(c1ccc2c(c1)N(Cc1ccc(F)cc1)C(=O)c1ccccc1S2=O)N1CCC(Cc2ccccc2)CC1 (stereo not drawn),23µM*,-3%,1%,/,?,-24%

# Remaining list, next part
SMILES,Nrf2 block,GRP78 ERSR act,Nrf2 activator,Mito fusion act,miR-21 reporter,A549 viability
Cn1cnnc1SCC(=O)Nc1ccc(Cl)cn1,7%,1%,-1%,-1%,-2%,-1%
CCOC(=O)c1c(NC(=O)C2C3C=CC(CC3)C2C(=O)O)sc(C)c1CC (stereo not drawn),-21%,-3%,0%,7.1µM*,-3%,8%
COC(=O)c1c(NC(=O)C2C3C=CC(CC3)C2C(=O)O)sc(C)c1C (stereo not drawn),-19%,-3%,0%,26%,-4%,0%
COc1cc(OCc2ccccc2)c(C(=O)/C=C/c2ccc3c(c2)OCO3)c(OC)c1OC,21µM*,-1%,?,/,/,0%
COc1cc(O)c(C(=O)/C=C\c2ccc3c(c2)OCO3)c(OC)c1,/,1%,/,/,/,/
COc1cccc(OCc2nnc(-c3cccs3)o2)c1,/,/,/,20%,-39%,/
CCOC(=O)C1CCCN(S(=O)(=O)c2cc(-c3onc(C)c3C)ccc2OC)C1 (stereo not drawn),-12%,-2%,0%,/,27%,-3%
CCOC(=O)c1sc(NC(=O)c2ccc(S(=O)(=O)N3CCCCCC3)cc2)nc1-c1ccccc1,?,-5%,0%,-5%,-2%,-7%
Cc1nnc(NC(=O)c2ccc(S(=O)(=O)N3CCOCC3)cc2)s1,-12%,-4%,0%,1%,5%,-2%
CCOC(=O)c1sc(NC(=O)c2ccc(S(=O)(=O)N3CCCCC3)cc2)nc1-c1ccccc1,23µM*,-6%,0%,-8%,8%,-5%
CCOC(=O)c1sc(NC(=O)c2ccc(S(=O)(=O)N3CCOCC3)cc2)nc1-c1ccccc1,21µM*,1%,1%,-12%,5%,-6%
O=C(NCCN1CCOCC1)c1ccc(S(=O)(=O)Nc2ccccc2)cc1,-11%,-1%,-3%,/,/,1%
O=C(NCC1CCCO1)c1cccc(NS(=O)(=O)c2ccccc2)c1 (stereo not drawn),0%,-5%,-1%,5%,/,-3%
Cc1ccc(NS(=O)(=O)c2cccc(C(=O)NCC3CCCO3)c2)cc1 (stereo not drawn),21µM*,-2%,5%,1%,/,-1%
Cc1ccc(NS(=O)(=O)c2ccc(C(=O)NCCN3CCOCC3)cc2)cc1,9.2µM*,0%,0%,/,/,-2%
O=C(CCCCCN1C(=O)CCC1=O)Nc1ncn[nH]1,/,0%,0%,-2%,-5%,10%
Cc1ccc(NC(=O)CSc2nc3ccccc3c3nc(CCc4c(C)n[nH]c4C)nn23)cc1F,13µM*,-10%,0%,-4%,-4%,?
Cc1n[nH]c(C)c1CCc1nc2c3ccccc3nc(SCC(=O)Nc3ccc(F)cc3)n2n1,/,-11%,-1%,/,26%,-15%
O=C(Nc1ccc(F)c(F)c1)c1ccc(-n2cncn2)c([N+](=O)[O-])c1,10µM*,-1%,2%,-3%,/,-15%
Cc1ccc(NC(=O)COC(=O)[C@H](C)N2C(=O)C3CC=CCC3C2=O)cc1S(=O)(=O)N(C)C (stereo partly drawn),?,-3%,0%,-2%,0%,10%
Cc1ccc(NC(=O)CN(C)CC(=O)Nc2ccc3c(c2)OCO3)cc1,/,-6%,0%,/,/,/
Cc1ccc(-c2nc(CN(C)Cc3cccc4cnccc34)c(C)o2)s1,23µM*,-1%,4%,-1%,-2%,-2%
CCCCCCCCCCCCCCCC[n+]1cccc2ccccc21,26µM*,-15%,-3%,-17%,?,-17%
CCCCCCCCC[n+]1cccc2c3ccccc3ccc21,9.2µM*,-15%,6%,-25%,?,?
COc1cc(OC)c(NC(=S)Nc2cc(Cl)cc(Cl)c2)cc1Cl,21µM*,-8%,2%,-9%,2%,0%
COc1ccccc1C(=O)Nc1ccccn1,/,4%,11µM*,-2%,-37%,11%
COc1cc(NC(=S)Nc2ccccn2)c(OC)cc1Cl,-13%,-1%,4µM*,0%,-7%,1%
O=C(Nc1ccccn1)c1ccc(Br)s1,?,-4%,16µM*,1%,-35%,-6%
Cc1cccc(CN2C(=O)NC(c3ccccc3)(c3ccccc3)C2=O)c1,?,0%,0%,9%,14%,6%
CCN(CC)CCNC(=O)c1cc2c(=O)n(C)c3cc(Cl)ccc3c2s1,?,-4%,-1%,/,-29%,9%
O=c1c2ccccc2cnn1-c1nc2ccccc2[nH]1,?,-14%,-3%,1%,?,-1%
